From ChEMBL document CHEMBL1134304, “Discovery of novel p-arylthio cinnamides as antagonists of leukocyte function-associated antigen-1/intercellular adhesion molecule-1 interaction. 4. Structure-activity relationship of substituents on the benzene ring of the cinnamide” (J Med Chem, 2001)

Biological target: T1, Integrin alpha-L (Homo sapiens, UniProt P20701)
T1 sequence (P20701 whole entry): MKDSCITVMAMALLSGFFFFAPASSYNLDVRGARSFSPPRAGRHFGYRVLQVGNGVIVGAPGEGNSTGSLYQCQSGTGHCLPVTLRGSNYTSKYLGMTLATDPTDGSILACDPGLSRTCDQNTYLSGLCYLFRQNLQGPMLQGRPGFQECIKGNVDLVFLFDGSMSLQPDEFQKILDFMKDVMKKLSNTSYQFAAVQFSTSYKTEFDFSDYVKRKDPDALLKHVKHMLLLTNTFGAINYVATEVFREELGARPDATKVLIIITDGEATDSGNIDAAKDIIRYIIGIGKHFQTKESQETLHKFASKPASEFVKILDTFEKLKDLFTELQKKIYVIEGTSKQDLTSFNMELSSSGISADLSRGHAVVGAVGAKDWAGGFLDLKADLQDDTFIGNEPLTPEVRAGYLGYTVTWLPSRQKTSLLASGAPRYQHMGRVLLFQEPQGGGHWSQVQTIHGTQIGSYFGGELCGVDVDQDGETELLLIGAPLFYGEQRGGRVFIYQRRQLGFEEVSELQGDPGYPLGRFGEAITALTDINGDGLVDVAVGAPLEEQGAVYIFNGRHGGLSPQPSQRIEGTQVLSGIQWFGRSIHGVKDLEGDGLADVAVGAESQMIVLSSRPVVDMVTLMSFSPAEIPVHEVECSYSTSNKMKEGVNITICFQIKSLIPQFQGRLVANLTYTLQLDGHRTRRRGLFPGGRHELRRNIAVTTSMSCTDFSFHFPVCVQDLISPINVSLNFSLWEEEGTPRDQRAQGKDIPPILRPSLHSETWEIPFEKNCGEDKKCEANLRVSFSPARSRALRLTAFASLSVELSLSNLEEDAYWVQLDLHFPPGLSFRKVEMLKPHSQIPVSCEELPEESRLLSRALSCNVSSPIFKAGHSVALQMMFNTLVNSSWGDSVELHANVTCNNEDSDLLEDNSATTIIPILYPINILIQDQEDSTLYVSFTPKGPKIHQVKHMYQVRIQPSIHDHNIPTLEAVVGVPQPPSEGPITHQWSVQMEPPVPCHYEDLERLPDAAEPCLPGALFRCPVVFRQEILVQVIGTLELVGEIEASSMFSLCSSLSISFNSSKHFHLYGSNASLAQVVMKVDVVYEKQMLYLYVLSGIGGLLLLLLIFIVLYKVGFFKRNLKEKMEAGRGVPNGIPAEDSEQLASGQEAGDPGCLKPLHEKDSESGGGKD
Assay: Inhibition of intercellular adhesion molecule-1 (ICAM-1) binding to recombinant LFA-1, range(30-60)

CC(=O)N1CCN(C(=O)/C=C/c2ccc(Sc3ccccc3C(C)C)c([N+](=O)[O-])c2)CC1 [A-286982]
IC50: 44 nM
